Results published in ChEMBL document CHEMBL1139629, “Discovery of diphenylcarbamate derivatives as highly potent and selective IP receptor agonists: orally active prostacyclin mimetics. Part 3” (Bioorg Med Chem Lett, 2005).

Key:
Canis familiaris [1] = experiment: Half life in dog after intravenous administdogion at 0.32 mg/kg dose; settings: in vivo
Canis familiaris [2] = experiment: Maximum concentdogion in dog after oral administdogion at 0.32 mg/kg dose; settings: in vivo
Canis familiaris [3] = experiment: Bioavailability in dog after intravenous administdogion at 0.32 mg/kg dose; settings: in vivo, read-out: Ba

With `O=C(O)COc1cccc2c1CC[C@](O)(COC(=O)N(c1ccccc1)c1ccccc1)C2` the half-life (Canis familiaris [1]) was 7.94 h, the Cmax (Canis familiaris [2]) was 305 ng/mL and the bioavailability (Canis familiaris [3]) was 98%.
